scFv variants of Ab-14 (heavy chain) against a SARS-CoV-2 spike peptide

From the AlphaSeq antibody data of Li et al. 2023 (doi:10.1038/s41467-023-39022-2), copy in the FLAb collection.

Binding partner: SARS-CoV-2 spike HR2 peptide, sequence PDVDLGDISGINAS.

The variants keep the light chain, the linker and the frameworks of Ab-14 (scFv order VH, a 15-residue (Gly4Ser)3 linker, VL).
VH: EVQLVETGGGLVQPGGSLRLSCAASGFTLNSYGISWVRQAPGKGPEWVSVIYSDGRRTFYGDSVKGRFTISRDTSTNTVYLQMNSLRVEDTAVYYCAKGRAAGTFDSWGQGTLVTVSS
VL: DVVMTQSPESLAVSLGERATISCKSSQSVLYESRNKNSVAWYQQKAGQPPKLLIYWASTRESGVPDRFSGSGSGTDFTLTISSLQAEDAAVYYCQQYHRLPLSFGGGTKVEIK

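The parent was found by panning a naive human phage display library on the peptide. Designed CDR sequences, proposed from the first random library and measured here. Group labels follow the data file (Ctrl: baseline library sampled from a position-specific scoring matrix, with some repeated check sequences; Rand: our label for a block that the file lists under HC and that is probably the random mutants of the ten best first-round binders; En: ensemble of fine-tuned language models; GP: Gaussian process model; GPLM: also part of the Gaussian process libraries; HC: hill climbing; Gen: genetic algorithm; Gibbs: Gibbs sampling; a sequence that several methods proposed may carry one label only). The assay is AlphaSeq: two haploid yeast populations carry antibody and antigen on their surface. Binding brings cells together so that they mate, and sequencing counts the barcode pairs among the diploids. The ratio of observed to expected reads was calibrated, replicate by replicate, on BCL2-family standards whose Kd was known from biolayer interferometry. Mating was done six times.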

Each variant is given by its three heavy chain CDRs, as the data file delimits them; those of the parent are GFTLNSYGIS, VIYSDGRRTFYGDSVK, GRAAGTFDS.
Affinities are written as log10 Kd with Kd in nM; a lower number is a better binder.
Replicates are averaged; those with no signal do not enter the mean.
"n.d." marks a missing value. The strain was present, yet no cells mated with the target were sequenced in that replicate, which points to weak or no binding.
The authors' rule: three or more of the six replicates give a measured affinity, fewer mean a poor binder.

CDR-H1,CDR-H2,CDR-H3,group,"log10 Kd, replicates",mean log10 Kd (nM),control signals
GFDLNEYGIS,VIYADGRRTAYHDSVK,GEAAGTFDQ,En_HC,0.57 1.29 -0.04 0.41 0.24 0.63,0.52,0 of 18
GFQLNEYGIS,VIYSDGRRTFYGDSVK,GREAGTFDT,GPLM_Gen,-0.22 -0.12 -0.48 -0.64 -0.50 -0.50,-0.41,1 of 18 (1.95)
GFDLEEMGIS,VIYADGARKVYTNSVK,GGFGGQMLV,En_Gibbs,n.d. n.d. n.d. n.d. n.d. n.d.,n.d.,0 of 18
GFTLNDYGIS,VIYSDGRRTQYIDSVK,GRAAGKFDS,Rand,n.d. n.d. n.d. n.d. n.d. n.d.,n.d.,0 of 18
GFSLNEYGIS,VIYSDGRRTFYSDSVK,GRNAGTFDS,GP_HC,-0.04 -0.46 -0.66 -0.94 -0.45 -0.40,-0.49,1 of 18 (2.63)
GFDLDEYGIS,VIYADGMRTAYADKVK,GNVAGTFDT,En_Gen,0.52 0.32 -0.14 -0.02 0.56 0.48,0.29,1 of 18 (2.91)
GFDLNEYGIS,VIYADGRRTFYADSVK,GKNAGTFSV,En_HC,0.06 -0.28 -0.56 -0.32 -0.45 -0.45,-0.33,0 of 18
GFDLNEYGIS,VIYADGRRTFYVDSVK,GVNAGTFDK,En_HC,-0.32 -0.47 -0.33 -0.29 -0.21 -0.36,-0.33,0 of 18
WFNLNSYGIS,VIYSDGRRTFYADSVK,GNVAGTFDS,GP_Gibbs,n.d. n.d. n.d. n.d. n.d. n.d.,n.d.,0 of 18
GFDLDEYGIS,VIYADGRRTYYADSVK,GENAGTFDM,En_HC,-0.66 -0.70 -0.07 -1.00 -0.84 -0.67,-0.66,0 of 18
GFGLDEYGIS,VIYADGNRQMYTDSVK,GFNLMLVSV,En_Gibbs,n.d. n.d. n.d. n.d. n.d. n.d.,n.d.,0 of 18
GFTLNSYGIS,VIYSDGRETFYSDSVK,GRAGGTFDS,Rand,n.d. n.d. n.d. n.d. n.d. n.d.,n.d.,0 of 18
GFDLNEYGIS,VIYADGVRKAYADSVK,GQNAGTFDI,En_Gen,-0.50 -1.03 -0.97 -1.17 -0.69 -0.52,-0.82,0 of 18
GFDLNEYGIS,VIYADGVRTFYTDSVK,GGNAGTFDS,En_HC,-0.53 -0.61 0.08 -0.72 -0.79 -0.23,-0.47,0 of 18
DFQLNSYGIS,VIYSDGQRTFYGDSVK,GREAGTFDQ,Ctrl,n.d. 0.42 0.44 0.99 0.17 0.43,0.49,0 of 18
GFTLNEYGIS,VIYSQGRRTFYTDSVK,GRFAGAFDS,Rand,n.d. n.d. n.d. n.d. n.d. n.d.,n.d.,0 of 18
GFTLNSYGIS,VIYADGRRTFYGDSVK,GRNAGTFSS,Ctrl,0.58 0.96 0.67 1.75 3.02 3.01,1.66,0 of 18
GFDLNEYGIS,VIYADGRRTFYADSVK,GQLAGTFNV,En_HC,-0.42 -0.51 -0.70 -0.26 -0.69 -0.71,-0.55,1 of 18 (1.75)
GFTLNSYGIS,VIYADGRRTFYGDSVK,GVAAGTFHS,Ctrl,n.d. 2.30 n.d. n.d. 3.37 n.d.,2.83,1 of 18 (3.10)
GFNLDEYGIS,VIYADGQRTAYAQHVK,GTGGMDRGV,En_Gibbs,n.d. n.d. n.d. 1.14 n.d. n.d.,1.14,0 of 18
GFDLNSYGIS,VIYSDGKRTFYADSVK,GRLAGTFDS,GP_Gibbs,0.73 0.56 0.48 0.37 0.61 0.49,0.54,2 of 18 (3.49)
GEDLDEYGIS,VIYADGMRQYYVNNVK,GDINDVDDL,En_Gibbs,n.d. n.d. n.d. n.d. n.d. n.d.,n.d.,0 of 18
GFDLNEYGIS,VIYADGRRTAYSDSVK,GNVGGTFDV,En_HC,-0.03 -0.27 -0.29 -0.31 -0.07 -0.05,-0.17,0 of 18
GFDLNEYGIS,VIYADGVRQAYADSVK,GENAGTFDL,En_Gen,0.50 0.92 n.d. 1.95 1.25 1.95,1.31,0 of 18
GFTLNSYGIS,VIYSDGRRTFYKDSVK,GQAAGTFDL,GPLM_Gen,1.20 2.62 2.24 1.97 2.34 2.50,2.15,0 of 18
GFTLNSYGIS,VIYSDGQRTFYIDSVK,GKAAGTFDS,GP_Gen,n.d. -0.41 1.13 -0.56 0.01 -0.43,-0.05,0 of 18
GFDLNEYGIS,VIYSDGRRTFYGDQVK,GRTAGTFDS,GP_Gen,n.d. n.d. n.d. n.d. n.d. n.d.,n.d.,0 of 18
GFTLNSYGIS,VIYSDGRRTFYDDSVK,GQLATTFDS,Rand,-0.07 0.35 -0.25 -1.17 0.11 -0.05,-0.18,0 of 18
GFELNSYGIS,VIYSDGRRTFYADSVK,GKQAGTFDS,GPLM_Gibbs,0.20 -0.06 -0.34 0.55 0.12 -0.44,0.01,0 of 18
GKGLDEYGIS,VIYADGVRKAYQNSVK,GQVTFFIRV,En_Gibbs,n.d. n.d. n.d. n.d. n.d. n.d.,n.d.,0 of 18
GDDLEAYGIS,VIYADGMRTYYDDAVK,GNVNGTFTD,En_Gibbs,n.d. n.d. n.d. 2.40 n.d. n.d.,2.40,0 of 18
GFDLNEYGIS,VIYADGRRTMYADSVK,GEVAGTFNS,En_HC,-0.63 -0.65 -0.53 -1.12 -1.17 -0.72,-0.80,2 of 18 (1.41)
GFELNSYGIS,VIYSDGRRTFYADDVK,GRQAGTFDS,GPLM_Gibbs,0.40 1.21 0.80 0.49 0.55 1.11,0.76,1 of 18 (2.65)
GFDLNEYGIS,VIYADGMRTAYSDSVK,GNVAGTFDL,En_Gen,-0.17 -0.20 -0.47 0.11 -0.73 0.00,-0.24,0 of 18
GFSLNEYGIS,VIYSDGRRTFYGDSVK,GKAAGTFDM,GPLM_Gen,0.17 -0.29 -0.31 -0.67 -0.02 0.19,-0.15,1 of 18 (0.81)
GFNLNEYGIS,VIYADGVRTFYADSVK,GQIAGTFIV,En_HC,n.d. n.d. n.d. n.d. n.d. n.d.,n.d.,0 of 18

Extract of 2 entries:

| CDR-H1 | CDR-H2 | CDR-H3 | group | log10 Kd, replicates | mean log10 Kd (nM) | control signals |
|---|---|---|---|---|---|---|
| GFDLNEYGIS | VIYADGRRTFYADSVK | GQLAGTFNV | En_HC | -0.42 -0.51 -0.70 -0.26 -0.69 -0.71 | -0.55 | 1 of 18 (1.75) |
| GFDLNSYGIS | VIYSDGKRTFYADSVK | GRLAGTFDS | GP_Gibbs | 0.73 0.56 0.48 0.37 0.61 0.49 | 0.54 | 2 of 18 (3.49) |

Of ten entries with the parent sequence, four were seen in most replicates (averages 0.34 to 2.37), three in one and three in none, so single entries are noisy.
As a blank, each scFv also met three strains without target: over all heavy chain designs, 1% of these pairings were detected, typically at 2.08 and seldom below 0.84. The control count says in how many pairings with the empty strains this scFv gave a signal, with their mean in brackets.
A sequence measured in both rounds can read differently, since the two assays cover different ranges.